The values below come from doi:10.1101/2024.05.25.595884 (bioRxiv, 2024).

For this test, the target named is full-length human HER2 with enhanced green fluorescent protein (eGFP) at the C-terminal end (Homo sapiens, UniProt P04626). The test is described as follows: SPID.

B1: Trastuzumab scFab variant Y52R (Fab, V domains shown)
VH: [… about 120 residues with changes …]
VL: DIQMTQSPSSLSASVGDRVTITCRASQDVNTAVAWYQQKPGKAPKLLIYSASFLYSGVPSRFSGSRSGTDFTLTISSLQPEDFATYYCQQHYTTPPTFGQGTKVEIK
In the case of B1, the Kd (commonly a measure of binding affinity in units of concentration) was 2.4 nM.
